Reference: patent US5026858A, “Piperidine derivative” (Walton S.A., priority 1976, dated 1991)

By UniProt entry, the sequences of proteins in these tests, tags left out.
UniProt P61169, whole entry: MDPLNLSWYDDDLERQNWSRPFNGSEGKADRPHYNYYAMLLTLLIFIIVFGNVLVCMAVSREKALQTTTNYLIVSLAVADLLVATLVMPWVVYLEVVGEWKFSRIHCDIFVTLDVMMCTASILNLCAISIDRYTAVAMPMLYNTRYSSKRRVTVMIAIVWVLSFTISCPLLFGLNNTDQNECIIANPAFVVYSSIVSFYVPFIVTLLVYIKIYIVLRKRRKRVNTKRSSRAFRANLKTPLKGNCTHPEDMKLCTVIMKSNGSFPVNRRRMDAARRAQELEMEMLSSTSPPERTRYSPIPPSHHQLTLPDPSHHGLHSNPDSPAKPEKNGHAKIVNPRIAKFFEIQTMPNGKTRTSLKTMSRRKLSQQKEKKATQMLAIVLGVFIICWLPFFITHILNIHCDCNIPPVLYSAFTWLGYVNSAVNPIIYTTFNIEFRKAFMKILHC

Tests used:
[1] = molecular target: T1, [3H]haloperidol binding, rat limbic forebrain membranes (Rattus norvegicus, UniProt P61169); assay: displacement of [3H]haloperidol from rat limbic forebrain membranes; conditions: Table 1, read-out: Displacement [3H]Haloperidol limbic: approximate KI
T1 construct: striatal and limbic forebrain membranes; from tissue; host or cells: rat limbic forebrain membranes
Text: (§1) ^(f) Approximate KI (nM) for displacement of [3Hhaloperidol from rat
(§2) striatal and limbic forebrain membranes.

[2] = molecular target: T2, [3H]haloperidol binding, rat striatal membranes (Rattus norvegicus, UniProt P61169); assay: displacement of [3H]haloperidol from rat striatal membranes; conditions: Table 1, read-out: Displacement [3H]Haloperidol striatum: approximate KI
T2 construct: striatal and limbic forebrain membranes; from tissue; host or cells: rat striatal membranes
Text: as §1, §2

CCN(CC)CCNC(=O)c1cc(Cl)c(N)cc1OC [Metoclopramide, reference compound]
Ki [1]: 150 nM
Ki [2]: 150 nM
